{"source": "ChEMBL document CHEMBL2390930", "about": "“Design, synthesis and evaluation of 1,2-benzisothiazol-3-one derivatives as potent caspase-3 inhibitors” (Bioorg Med Chem, 2013)", "target": "T1, Caspase-3 (Homo sapiens, UniProt P42574)", "T1 sequence (P42574 whole entry)": "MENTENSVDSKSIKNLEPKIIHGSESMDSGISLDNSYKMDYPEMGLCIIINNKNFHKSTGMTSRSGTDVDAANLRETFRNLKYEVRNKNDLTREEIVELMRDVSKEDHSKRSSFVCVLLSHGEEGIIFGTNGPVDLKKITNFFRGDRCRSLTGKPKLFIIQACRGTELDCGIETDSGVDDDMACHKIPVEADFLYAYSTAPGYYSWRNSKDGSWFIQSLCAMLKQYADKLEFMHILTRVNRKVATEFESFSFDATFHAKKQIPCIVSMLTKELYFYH", "experiment": "Inhibition of recombinant human caspase-3 using Ac-LDEVD-AMC as substrate assessed as accumulation of 7-AMC incubated for 10 mins followed by substrate addition measured for 10 mins by fluorimetric analysis", "data": [{"smiles": "CC(=O)N[C@@H](CC(=O)O)C(=O)N[C@@H](CCC(=O)O)C(=O)N[C@H](C(=O)N[C@H](C=O)CC(=O)O)C(C)C", "values": [{"measurement": "IC50", "result": 0.2, "unit": "nM"}]}]}
